Data on 13 molecules can be found in patent US20230295259A1 (Protagonist Therapeutics, Inc., priority 2020, published 2023).

The target of the first assay is T1, ferroportin endogenously expressed on T47D human breast carcinoma cells (human, UniProt Q9NP59 1-571).
T1 sequence (looked up): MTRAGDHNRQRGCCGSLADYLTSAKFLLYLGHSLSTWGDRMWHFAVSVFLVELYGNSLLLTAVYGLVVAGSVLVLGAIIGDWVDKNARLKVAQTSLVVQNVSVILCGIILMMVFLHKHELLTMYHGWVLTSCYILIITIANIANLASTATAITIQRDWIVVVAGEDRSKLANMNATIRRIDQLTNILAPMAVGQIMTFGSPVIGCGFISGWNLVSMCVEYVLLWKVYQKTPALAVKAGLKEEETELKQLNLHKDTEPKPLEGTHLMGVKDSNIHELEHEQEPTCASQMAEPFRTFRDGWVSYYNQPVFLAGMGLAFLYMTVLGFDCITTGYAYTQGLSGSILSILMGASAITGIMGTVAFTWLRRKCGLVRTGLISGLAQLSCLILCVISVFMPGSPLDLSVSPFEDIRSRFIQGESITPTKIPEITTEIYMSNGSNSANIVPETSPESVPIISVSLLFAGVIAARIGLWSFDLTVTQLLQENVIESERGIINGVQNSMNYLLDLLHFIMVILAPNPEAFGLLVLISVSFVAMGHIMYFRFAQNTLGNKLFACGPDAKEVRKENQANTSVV
The assay can be described thus: cell-based or functional assay.
Settings: not given
On to XETHXPCIXXXC (Isovaleric Acid-E-T-H-[Dpa]-P-C-I-[Lys(PEG12_C18 acid)]-[bhPhe]-[(D)Lys]-C-NH2) [Compound 306], for which the “IC50: T47D Internalization MSA” value stood at 0.99 nM.

The next assay addresses T2, human ferroportin (Homo sapiens, UniProt Q9NP59).
T2 construct: expressed in transfected cells
T2 sequence (Q9NP59 1-571): T1 sequence (looked up)
The assay can be described thus: FPN activity assay: internalization/degradation of ferroportin-GFP in stably transfected HEK293 cells (decrease in GFP fluorescence). The conditions noted are these: Table 2A; HEK293 cells expressing human ferroportin-GFP, at least 18 hours incubation; read-out: FPN EC50. It counts as cell-based. As for the experimental part:
Following internalization, the ferroportin protein is degraded.
A retro inverse peptide is a peptide with a reversed sequence in all D amino acids. An example is that Hy-Glu-Thr-His-NH2 becomes Hy-DHis-DThr-DGlu-NH2. The EC50 of these reference compounds for ferroportin internalization/degradation was determined according to the FPN activity assay described above. These peptides served as control standards.
These values were determined as described herein.
For `CCCCCCCCCCCCCCCC(=O)NCCCCCC(=O)NCCCC[C@@H]1NC(=O)C[C@H](Cc2ccccc2)NC(=O)[C@@H](CCCCN)NC(=O)[C@H]([C@@H](C)CC)NC(=O)[C@@H](NC(=O)[C@@H]2CCCN2C(=O)C(NC(=O)[C@H](Cc2cnc[nH]2)NC(=O)[C@@H](NC(=O)[C@H](CCC(=O)O)NC(=O)CC(C)C)[C@@H](C)O)C(c2ccccc2)c2ccccc2)CSSC[C@@H](C(N)=O)NC(=O)[C@@H](CCCCN)NC1=O` (stereo partly shown) [Compound 6, Isovaleric Acid-E-T-H-[Dpa]-P-[Cys]-I-[(D)Lys]-[bhPhe]-[Lys(Ahx_Palm)]-[(D)Lys]-[Cys]-NH2], the DC50 came to 18.6 nM.
Regarding `CC[C@H](C)[C@@H]1NC(=O)[C@@H](NC(=O)[C@@H]2CCCN2C(=O)[C@@H](NC(=O)[C@H](Cc2cnc[nH]2)NC(=O)[C@@H](NC(=O)[C@H](CCC(=O)O)NC(=O)CC(C)C)[C@@H](C)O)C(c2ccccc2)c2ccccc2)CSSC[C@@H](C(N)=O)NC(=O)[C@@H](CCCCN)NC(=O)C[C@H](Cc2ccccc2)NC(=O)[C@H](CCCCNC(=O)COCCOCCNC(=O)COCCOCCNC(=O)CC[C@H](NC(=O)CCCCCCCCCCCCCCCCC(=O)O)C(=O)O)NC1=O` [Compound 107, Isovaleric Acid-E-T-H-[Dpa]-P-[Cys]-I-[Lys(1Peg2_1Peg2_IsoGlu_C18_Diacid)]-[bhPhe]-[(D)Lys]-[Cys]-NH2], the DC50 was determined as 15.5 nM.
Still for that read-out and setting: to `CC[C@H](C)[C@@H]1NC(=O)[C@@H](NC(=O)[C@@H]2CCCN2C(=O)[C@@H](NC(=O)[C@H](Cc2cnc[nH]2)NC(=O)[C@@H](NC(=O)[C@H](CCC(=O)O)NC(=O)CC(C)C)[C@@H](C)O)C(c2ccccc2)c2ccccc2)CSSC[C@@H](C(N)=O)NC(=O)[C@@H](CCCCN)NC(=O)C[C@H](Cc2ccccc2)NC(=O)[C@H](CCCCNC(=O)COCCOCCNC(=O)COCCOCCNC(=O)CCCCCCCCCCCCCCCCC(=O)O)NC1=O` [Compound 114, Isovaleric Acid-E-T-H-[Dpa]-P-[Cys]-I-[Lys(1Peg2_1Peg2_C18_Diacid)]-[bhPhe]-[(D)Lys]-[Cys]-NH2] belongs 12 nM.

Staying with this assay, now noted: Table 2B; HEK293 cells expressing human ferroportin-GFP, at least 18 hours incubation; read-out: FPN EC50.
With `CC[C@H](C)[C@@H]1NC(=O)[C@@H](NC(=O)[C@@H]2CCCN2C(=O)[C@@H](NC(=O)[C@H](Cc2cnc[nH]2)NC(=O)[C@@H](NC(=O)[C@H](CCC(=O)OC)NC(=O)CC(C)C)[C@@H](C)O)C(c2ccccc2)c2ccccc2)CSSC[C@@H](C(N)=O)NC(=O)[C@@H](CCCCN)NC(=O)C[C@H](Cc2ccccc2)NC(=O)[C@H](CCCCNC(=O)COCCOCCNC(=O)COCCOCCNC(=O)[C@H](CN)NC(=O)CCCCCCCCCCCCCCCCC(=O)O)NC1=O` [Compound 279, Isovaleric Acid-[Glu_OMe]-T-H-[Dpa]-P—C—I-[Lys(1PEG2_1PEG2_Dap_C18_Diacid)]-[bhPhe]-[(D)Lys]-C—NH2], the DC50 was found to be 11.4 nM.

The same assay, now with this note: Table 2D (Illustrative Monomer Hepcidin Analogues); ferroportin-GFP HEK293 cells; read-out: IC50: FPN internalisation.
Turning to `CC[C@H](C)[C@@H]1NC(=O)[C@@H](NC(=O)[C@@H]2CCCN2C(=O)[C@@H](NC(=O)[C@H](Cc2ccncc2)NC(=O)[C@@H](NC(=O)[C@H](CCC(=O)OC)NC(=O)CC(C)C)[C@@H](C)O)C(c2ccccc2)c2ccccc2)CCSSC(C(N)=O)NC(=O)[C@@H](CCCCN)NC(=O)C[C@H](Cc2ccccc2)NC(=O)[C@H](CCCCNC(=O)COCCOCCNC(=O)COCCOCCNC(=O)CCCCCNC(=O)CCCCCCCCCCCCCCCCC(=O)O)NC1=O` (stereo partly shown) [Compound 496], the DC50 was 10.6 nM.
The same measure, in the same setting: to `CC[C@H](C)[C@@H]1NC(=O)[C@@H](NC(=O)[C@@H]2CCCN2C(=O)[C@@H](NC(=O)[C@H](Cc2cnc[nH]2)NC(=O)[C@@H](NC(=O)[C@H](CCC(=O)OC)NC(=O)CC(C)C)[C@@H](C)O)C(c2ccccc2)c2ccccc2)CSSC[C@@H](C(N)=O)CC(=O)[C@@H](CCCCN)NC(=O)[C@H](CCc2ccccc2)NC(=O)[C@H](CCCCNC(=O)COCCOCCNC(=O)COCCOCCNC(=O)[C@H](CN)NC(=O)CCCCCCCCCCCCCCCCC(=O)O)NC1=O` [Compound 508] belongs 24.2 nM; to `CC[C@H](C)[C@@H]1NC(=O)[C@@H](NC(=O)[C@@H]2CCCN2C(=O)[C@@H](NC(=O)[C@H](Cc2cnc[nH]2)NC(=O)[C@@H](NC(=O)[C@H](CCC(=O)O)NC(=O)CC(C)C)[C@@H](C)O)C(c2ccccc2)c2ccccc2)CSSC[C@@H](C(N)=O)NC(=O)[C@@H](CCCCN)NC(=O)C[C@H](Cc2ccccc2)NC(=O)[C@H](CCCCNC(=O)CCCOCCOCCOCCOCCOCCOCCOCCOCCOCCOCCOCCNC(=O)CCOCCOCCOCCCCCCOCCOCCOCCOCCOCCOCCOCCNC(=O)[C@@H](CN)NC(=O)CCCCCCCCCCCCCCCCC(=O)O)NC1=O` [Compound 516], 18.8 nM.
The same measure, in the same setting: to `CC[C@H](C)[C@@H]1NC(=O)[C@@H](NC(=O)[C@@H]2CCCN2C(=O)[C@@H](NC(=O)[C@H](Cc2cnc[nH]2)NC(=O)[C@@H](NC(=O)[C@H](CCC(=O)OC)NC(=O)CC(C)C)[C@@H](C)O)C(c2ccccc2)c2ccccc2)CSSC[C@@H](C(N)=O)NC(=O)[C@@H](CCCCN)NC(=O)C[C@H](Cc2ccccc2)NC(=O)[C@H](CCCCNC(=O)CCOCCOCCOCCOCCOCCOCCOCCOCCCCCOCCOCCOCCNC(=O)CCOCCOCCOCCOCCOCCOCCOCCOCCOCCOCCOCCOCCNC(=O)[C@@H](CN)NC(=O)CCCCCCCCCCCCCCCCC(=O)O)NC1=O` [Compound 519] belongs 24.7 nM; to `CC[C@H](C)[C@@H]1NC(=O)[C@@H](NC(=O)[C@@H]2CCCN2C(=O)[C@@H](NC(=O)[C@H](Cc2cnc[nH]2)NC(=O)[C@@H](NC(=O)[C@H](CCC(=O)OC)NC(=O)CC(C)C)[C@@H](C)O)C(c2ccccc2)c2ccccc2)CSSC[C@@H](C(N)=O)NC(=O)[C@@H](CCCCNC(=O)CCOCCOCCOCCOCCOCCOCCOCCOCCOCCOCCOCCOC)NC(=O)C[C@H](Cc2ccccc2)NC(=O)[C@H](CCCCNC(=O)COCCOCCNC(=O)COCCOCCNC(=O)[C@H](CN)NC(=O)CCCCCCCCCCCCCCCCC(=O)O)NC1=O` [Compound 523], 17 nM.
Still for that read-out and setting: next, `CC[C@H](C)[C@@H]1NC(=O)[C@@H](NC(=O)[C@@H]2CCCN2C(=O)[C@@H](NC(=O)[C@H](Cc2cnc[nH]2)NC(=O)[C@@H](NC(=O)[C@H](CCC(=O)O)NC(=O)CC(C)C)[C@@H](C)O)C(c2ccccc2)c2ccccc2)CSSC[C@@H](C(N)=O)NC(=O)[C@@H](CCCCNC(=O)CCOCCOCCOCCOCCOCCOCCOCCOCCOCCOCCOCCOC)NC(=O)C[C@H](Cc2ccccc2)NC(=O)[C@H](CCCCNC(=O)COCCOCCNC(=O)COCCOCCNC(=O)[C@H](CN)NC(=O)CCCCCCCCCCCCCCCCC(=O)O)NC1=O` [Compound 524]: 18.8 nM; `CC[C@H](C)[C@@H]1NC(=O)[C@@H](NC(=O)[C@@H]2CCCN2C(=O)[C@@H](NC(=O)[C@H](Cc2cnc[nH]2)NC(=O)[C@@H](NC(=O)[C@H](CCC(=O)OC)NC(=O)CC(C)C)[C@@H](C)O)C(c2ccccc2)c2ccccc2)CSSC[C@@H](C(=O)N[C@H](CCCNC(=N)N)C(N)=O)NC(=O)[C@@H](CCCCN)NC(=O)C[C@H](Cc2ccccc2)NC(=O)[C@H](CCCCNC(=O)COCCOCCNC(=O)COCCOCCNC(=O)[C@H](CN)NC(=O)CCCCCCCCCCCCCCCCC(=O)O)NC1=O` [Compound 534]: 13.5 nM; `CC[C@H](C)[C@@H]1NC(=O)[C@@H](NC(=O)[C@@H]2CCCN2C(=O)[C@@H](NC(=O)[C@H](Cc2cnc[nH]2)NC(=O)[C@@H](NC(=O)[C@H](CCC(=O)OC)NC(=O)CC(C)C)[C@@H](C)O)C(c2ccccc2)c2ccccc2)CSSC[C@@H](C(N)=O)NC(=O)[C@@H](CCCNC(=N)N)NC(=O)C[C@H](Cc2ccccc2)NC(=O)[C@H](CCCCNC(=O)COCCOCCNC(=O)COCCOCCNC(=O)[C@H](CN)NC(=O)CCCCCCCCCCCCCCCCC(=O)O)NC1=O` [Compound 535]: 21 nM.
